Patent publication US9750727B2 (priority 2010, dated 2017)

Tests used:
M. bovis bovinus 8 = type: in vivo; conditions: TB drug combined with the new treatment vs TB drug monotherapy; mice
[1] = test system: peritoneal macrophages (pMP); parameters: species or system mice; conditions: mouse, in vivo

| Structure (SMILES) | improvement of the indices of lung damage (morphological) (M. bovis bovinus 8) | other results |
| --- | --- | --- |
| CC[C@@H](CO)NCCN[C@@H](CC)CO [Ethambutol, ethambutol] | 3.19% |  |
| NNC(=O)c1ccncc1 [Isoniazid, isonicotinic acid hydrazide] | 10.1% |  |
| CC1COc2c(N3CCN(C)CC3)c(F)cc3c(=O)c(C(=O)O)cn1c23 (stereo not drawn) [Ofloxacin] | 3.24% |  |
| CO[C@H]1/C=C/O[C@@]2(C)Oc3c(C)c(O)c4c(c3C2=O)C2=NC3(CCN(CC(C)C)CC3)NC2=C(NC(=O)/C(C)=C\C=C\[C@H](C)[C@H](O)[C@@H](C)[C@@H](O)[C@@H](C)[C@H](OC(C)=O)[C@@H]1C)C4=O [Rifabutin, rifabutin] |  | increase of the index of lung damage (morphological) (M. bovis bovinus 8): 15.9% |
| CO[C@H]1/C=C/O[C@@]2(C)Oc3c(C)c(O)c4c(O)c(c(/C=N/N5CCN(C)CC5)c(O)c4c3C2=O)NC(=O)/C(C)=C\C=C\[C@H](C)[C@H](O)[C@@H](C)[C@@H](O)[C@@H](C)[C@H](OC(C)=O)[C@@H]1C [Rifampicin, rifampicin] |  | increase of pMP phagocytosis [1]: 1.4 fold; mean macrophagal activity of pMP [1]: 71.43 and 99.12 |

Values joined by “and” are separate entries in the source; they are usually repeats but may differ in a detail not shown here. Identical values can stand only once.
